Measurements reported in patent US10196357B2, “Biaryl compositions and methods for modulating a kinase cascade” (Athenex, Inc., priority 2007, dated 2019).

Amino acid sequences for entries named in this document (tags omitted). Residues count along the entry.
UniProt P08069, 31-1367 limits assumed: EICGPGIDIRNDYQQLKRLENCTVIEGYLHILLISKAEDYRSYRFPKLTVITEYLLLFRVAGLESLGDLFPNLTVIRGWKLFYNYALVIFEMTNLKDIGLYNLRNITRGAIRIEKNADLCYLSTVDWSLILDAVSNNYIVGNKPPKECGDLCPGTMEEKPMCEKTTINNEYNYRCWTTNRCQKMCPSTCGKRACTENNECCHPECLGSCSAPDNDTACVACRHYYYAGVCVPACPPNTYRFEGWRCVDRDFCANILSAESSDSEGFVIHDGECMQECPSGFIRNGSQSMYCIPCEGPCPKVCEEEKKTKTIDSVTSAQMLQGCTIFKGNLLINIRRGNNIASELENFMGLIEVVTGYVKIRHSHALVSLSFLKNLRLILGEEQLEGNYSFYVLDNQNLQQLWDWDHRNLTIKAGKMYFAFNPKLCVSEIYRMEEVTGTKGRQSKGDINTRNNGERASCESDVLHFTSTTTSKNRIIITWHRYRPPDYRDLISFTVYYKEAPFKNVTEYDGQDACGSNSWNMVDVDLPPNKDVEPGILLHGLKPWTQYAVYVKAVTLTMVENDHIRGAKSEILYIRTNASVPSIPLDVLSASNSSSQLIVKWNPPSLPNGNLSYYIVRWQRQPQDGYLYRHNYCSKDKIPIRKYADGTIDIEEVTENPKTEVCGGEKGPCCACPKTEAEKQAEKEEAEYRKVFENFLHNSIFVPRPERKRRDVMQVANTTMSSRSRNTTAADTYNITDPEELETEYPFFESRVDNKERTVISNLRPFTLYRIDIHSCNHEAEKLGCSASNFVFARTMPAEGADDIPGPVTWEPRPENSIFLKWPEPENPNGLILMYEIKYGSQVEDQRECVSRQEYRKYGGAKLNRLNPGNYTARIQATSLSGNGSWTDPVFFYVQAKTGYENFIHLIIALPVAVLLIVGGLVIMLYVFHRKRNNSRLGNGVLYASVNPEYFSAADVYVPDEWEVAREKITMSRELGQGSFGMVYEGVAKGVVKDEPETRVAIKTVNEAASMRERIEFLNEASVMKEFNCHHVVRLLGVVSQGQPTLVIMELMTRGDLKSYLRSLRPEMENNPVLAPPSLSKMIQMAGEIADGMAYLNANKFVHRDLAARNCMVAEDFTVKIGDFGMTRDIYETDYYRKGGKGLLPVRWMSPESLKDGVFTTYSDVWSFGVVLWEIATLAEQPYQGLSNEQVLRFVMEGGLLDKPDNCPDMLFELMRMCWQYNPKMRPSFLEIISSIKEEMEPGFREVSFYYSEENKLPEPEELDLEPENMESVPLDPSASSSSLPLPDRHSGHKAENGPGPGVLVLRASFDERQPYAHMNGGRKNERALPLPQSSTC
UniProt P09619, 33-1106 limits assumed: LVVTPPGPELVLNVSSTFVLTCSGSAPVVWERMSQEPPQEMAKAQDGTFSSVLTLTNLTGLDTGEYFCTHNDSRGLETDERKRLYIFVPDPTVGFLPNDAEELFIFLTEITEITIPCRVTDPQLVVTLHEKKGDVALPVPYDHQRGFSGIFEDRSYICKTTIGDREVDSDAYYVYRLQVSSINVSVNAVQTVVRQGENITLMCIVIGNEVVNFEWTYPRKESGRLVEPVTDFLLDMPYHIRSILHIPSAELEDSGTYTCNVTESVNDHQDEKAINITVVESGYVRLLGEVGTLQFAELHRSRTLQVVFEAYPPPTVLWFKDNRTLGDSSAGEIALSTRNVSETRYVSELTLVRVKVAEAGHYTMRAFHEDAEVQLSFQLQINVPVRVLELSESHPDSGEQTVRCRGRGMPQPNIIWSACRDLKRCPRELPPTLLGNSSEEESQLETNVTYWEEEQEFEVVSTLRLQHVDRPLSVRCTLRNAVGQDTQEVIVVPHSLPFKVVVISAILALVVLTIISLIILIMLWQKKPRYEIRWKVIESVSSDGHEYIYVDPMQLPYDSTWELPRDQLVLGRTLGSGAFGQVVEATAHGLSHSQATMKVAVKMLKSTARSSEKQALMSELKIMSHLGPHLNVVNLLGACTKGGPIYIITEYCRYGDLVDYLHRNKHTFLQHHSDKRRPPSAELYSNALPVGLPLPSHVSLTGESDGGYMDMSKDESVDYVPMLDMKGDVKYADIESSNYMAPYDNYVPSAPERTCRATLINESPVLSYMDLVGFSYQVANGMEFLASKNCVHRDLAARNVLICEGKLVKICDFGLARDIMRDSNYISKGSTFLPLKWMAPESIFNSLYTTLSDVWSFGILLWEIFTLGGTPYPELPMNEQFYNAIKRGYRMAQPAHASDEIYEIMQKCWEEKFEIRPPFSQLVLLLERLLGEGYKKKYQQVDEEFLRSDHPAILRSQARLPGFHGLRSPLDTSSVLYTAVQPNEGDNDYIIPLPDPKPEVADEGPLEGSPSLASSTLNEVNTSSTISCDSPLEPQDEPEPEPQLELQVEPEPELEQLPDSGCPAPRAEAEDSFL
UniProt P43403, whole entry: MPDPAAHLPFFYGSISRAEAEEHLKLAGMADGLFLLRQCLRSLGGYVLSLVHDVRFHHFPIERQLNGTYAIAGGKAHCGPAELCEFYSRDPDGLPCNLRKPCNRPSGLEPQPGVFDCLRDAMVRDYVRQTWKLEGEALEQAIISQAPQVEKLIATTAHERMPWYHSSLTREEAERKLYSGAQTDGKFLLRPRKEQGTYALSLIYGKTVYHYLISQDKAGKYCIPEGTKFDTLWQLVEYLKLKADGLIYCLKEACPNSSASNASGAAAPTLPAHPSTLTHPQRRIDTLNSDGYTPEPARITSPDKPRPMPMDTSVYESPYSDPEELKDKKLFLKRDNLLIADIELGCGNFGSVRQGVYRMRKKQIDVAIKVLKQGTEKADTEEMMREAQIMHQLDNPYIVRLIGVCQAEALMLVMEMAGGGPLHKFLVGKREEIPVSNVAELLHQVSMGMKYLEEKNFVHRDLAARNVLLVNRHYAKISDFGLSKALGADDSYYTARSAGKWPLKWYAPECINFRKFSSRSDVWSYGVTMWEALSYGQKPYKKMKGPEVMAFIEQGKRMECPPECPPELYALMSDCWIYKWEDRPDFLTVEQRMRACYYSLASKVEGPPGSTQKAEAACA
UniProt Q14289, whole entry: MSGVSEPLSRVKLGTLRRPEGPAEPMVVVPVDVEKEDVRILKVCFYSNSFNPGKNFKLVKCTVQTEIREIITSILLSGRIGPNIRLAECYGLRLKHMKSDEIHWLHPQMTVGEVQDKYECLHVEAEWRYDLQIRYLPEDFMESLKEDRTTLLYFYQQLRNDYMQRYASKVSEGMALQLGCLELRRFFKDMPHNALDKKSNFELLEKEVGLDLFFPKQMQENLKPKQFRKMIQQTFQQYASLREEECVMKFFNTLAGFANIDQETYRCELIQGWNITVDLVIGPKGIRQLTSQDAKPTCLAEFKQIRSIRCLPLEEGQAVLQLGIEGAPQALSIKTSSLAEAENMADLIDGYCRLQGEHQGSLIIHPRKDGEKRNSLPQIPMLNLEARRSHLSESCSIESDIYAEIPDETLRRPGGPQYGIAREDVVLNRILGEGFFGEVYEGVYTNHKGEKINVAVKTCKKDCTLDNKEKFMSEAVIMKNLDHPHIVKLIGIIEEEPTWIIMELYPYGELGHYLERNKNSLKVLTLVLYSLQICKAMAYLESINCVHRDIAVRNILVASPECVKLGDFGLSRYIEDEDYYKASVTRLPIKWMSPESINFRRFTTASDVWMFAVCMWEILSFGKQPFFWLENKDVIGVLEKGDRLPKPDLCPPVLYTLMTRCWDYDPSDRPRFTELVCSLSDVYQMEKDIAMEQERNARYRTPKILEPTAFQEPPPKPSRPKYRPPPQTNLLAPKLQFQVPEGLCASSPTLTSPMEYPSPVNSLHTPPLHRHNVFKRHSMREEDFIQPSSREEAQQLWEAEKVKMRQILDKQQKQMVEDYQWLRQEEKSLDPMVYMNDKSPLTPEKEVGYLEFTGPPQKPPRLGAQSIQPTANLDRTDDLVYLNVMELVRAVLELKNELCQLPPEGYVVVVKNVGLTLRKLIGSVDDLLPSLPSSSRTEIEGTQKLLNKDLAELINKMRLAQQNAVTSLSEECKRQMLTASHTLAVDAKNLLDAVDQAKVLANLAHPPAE
UniProt P07947, whole entry: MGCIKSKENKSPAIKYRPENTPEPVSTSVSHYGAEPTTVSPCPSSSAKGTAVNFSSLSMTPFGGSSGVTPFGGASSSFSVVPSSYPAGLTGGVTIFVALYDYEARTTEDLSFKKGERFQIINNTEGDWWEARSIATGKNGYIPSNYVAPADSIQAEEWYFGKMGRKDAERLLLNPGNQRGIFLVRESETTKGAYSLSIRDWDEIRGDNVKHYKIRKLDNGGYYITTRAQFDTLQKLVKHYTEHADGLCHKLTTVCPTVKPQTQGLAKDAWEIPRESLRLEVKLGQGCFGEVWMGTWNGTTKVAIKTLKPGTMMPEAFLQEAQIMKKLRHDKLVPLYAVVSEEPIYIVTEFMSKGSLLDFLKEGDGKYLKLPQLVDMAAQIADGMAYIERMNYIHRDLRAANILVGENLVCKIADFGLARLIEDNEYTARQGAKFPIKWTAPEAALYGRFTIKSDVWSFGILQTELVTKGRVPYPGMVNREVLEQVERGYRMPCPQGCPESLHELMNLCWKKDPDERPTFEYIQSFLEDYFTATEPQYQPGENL
UniProt P00533, 25-1210 limits assumed: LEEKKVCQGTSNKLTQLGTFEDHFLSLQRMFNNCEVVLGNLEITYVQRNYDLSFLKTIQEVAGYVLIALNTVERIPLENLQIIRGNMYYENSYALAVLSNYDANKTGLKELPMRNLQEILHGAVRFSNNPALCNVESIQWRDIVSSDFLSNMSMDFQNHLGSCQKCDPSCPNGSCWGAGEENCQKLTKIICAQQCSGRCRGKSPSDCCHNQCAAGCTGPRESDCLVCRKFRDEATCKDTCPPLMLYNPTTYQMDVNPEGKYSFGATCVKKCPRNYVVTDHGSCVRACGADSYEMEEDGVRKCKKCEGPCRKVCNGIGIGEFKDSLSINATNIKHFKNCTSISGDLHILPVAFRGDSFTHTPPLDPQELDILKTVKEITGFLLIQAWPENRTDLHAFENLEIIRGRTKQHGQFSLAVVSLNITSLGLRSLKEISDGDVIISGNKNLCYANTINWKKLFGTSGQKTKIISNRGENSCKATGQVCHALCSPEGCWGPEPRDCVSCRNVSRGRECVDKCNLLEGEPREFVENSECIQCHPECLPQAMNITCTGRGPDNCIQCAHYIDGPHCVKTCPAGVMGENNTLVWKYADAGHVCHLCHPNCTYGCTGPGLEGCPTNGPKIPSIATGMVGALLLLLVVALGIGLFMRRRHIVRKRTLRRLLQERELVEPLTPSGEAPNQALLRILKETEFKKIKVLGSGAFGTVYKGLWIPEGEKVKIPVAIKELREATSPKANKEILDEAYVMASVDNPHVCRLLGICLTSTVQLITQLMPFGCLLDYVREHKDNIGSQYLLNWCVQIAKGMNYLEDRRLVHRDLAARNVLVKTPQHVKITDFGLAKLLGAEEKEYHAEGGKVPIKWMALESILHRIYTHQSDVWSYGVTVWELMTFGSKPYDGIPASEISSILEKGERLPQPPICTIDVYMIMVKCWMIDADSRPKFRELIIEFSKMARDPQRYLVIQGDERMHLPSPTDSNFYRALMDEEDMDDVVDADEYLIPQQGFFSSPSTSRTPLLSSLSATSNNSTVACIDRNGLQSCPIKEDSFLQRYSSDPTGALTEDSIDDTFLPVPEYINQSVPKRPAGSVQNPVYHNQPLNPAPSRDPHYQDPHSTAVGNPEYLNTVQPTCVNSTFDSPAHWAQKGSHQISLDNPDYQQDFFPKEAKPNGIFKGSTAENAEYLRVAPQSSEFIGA
UniProt P06239, whole entry: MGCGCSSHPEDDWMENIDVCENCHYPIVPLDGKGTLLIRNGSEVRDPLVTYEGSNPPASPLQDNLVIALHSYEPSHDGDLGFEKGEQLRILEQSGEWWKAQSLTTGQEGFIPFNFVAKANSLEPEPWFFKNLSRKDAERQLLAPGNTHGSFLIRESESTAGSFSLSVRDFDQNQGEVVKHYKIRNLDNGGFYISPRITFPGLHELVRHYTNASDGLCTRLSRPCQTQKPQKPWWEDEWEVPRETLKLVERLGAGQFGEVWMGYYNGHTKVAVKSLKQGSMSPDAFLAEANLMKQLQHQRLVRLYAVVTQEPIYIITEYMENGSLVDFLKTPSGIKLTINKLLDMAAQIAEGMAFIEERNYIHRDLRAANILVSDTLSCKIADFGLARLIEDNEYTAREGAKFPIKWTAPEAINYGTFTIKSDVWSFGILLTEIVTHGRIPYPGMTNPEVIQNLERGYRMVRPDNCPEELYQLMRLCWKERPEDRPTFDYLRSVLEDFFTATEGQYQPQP

How the values were obtained:
MAPK2(h) = MAPK2(h) (Homo sapiens, UniProt P28482); assay: isolated kinase activity, MAPK2; assay type: biochemical; settings: compound @ 10 μM
Lyn(h) = Lyn(h) (Homo sapiens, UniProt P07948); assay: isolated kinase activity, Lyn; assay type: biochemical; settings: compound @ 10 μM
[1] = tested on: osteoclasts on bone slices; assay: osteoclast formation on bone slices; assay type: cell-based; settings: vs untreated control
c-Src 3T3 cells = assay: BrdU cell growth inhibition, c-Src 3T3; assay type: cell-based, mouse
PI3 kinase = assay: isolated kinase activity, PI3 kinase; assay type: biochemical; settings: compound @ 10 μM
IGF-1R(h) = IGF-1R(h) (Homo sapiens, UniProt P08069); assay: isolated kinase activity, IGF-1R; assay type: biochemical; settings: compound @ 10 μM
PDGFRβ(h) = PDGFRβ(h) (Homo sapiens, UniProt P09619); assay: isolated kinase activity, PDGFRβ; assay type: biochemical; settings: compound @ 10 μM
osteoclasts = assay: osteoclast survival; assay type: cell-based; settings: 48 hours, RANKL and M-CSF, vs untreated control
ZAP-70(h) = ZAP-70(h) (Homo sapiens, UniProt P43403); assay: isolated kinase activity, ZAP-70; assay type: biochemical; settings: compound @ 10 μM
HT29 cell line = assay: BrdU cell growth inhibition, HT29; assay type: cell-based, human; settings: 5 uM
Pyk2(h) = Pyk2(h) (Homo sapiens, UniProt Q14289); assay: isolated kinase activity, Pyk2; assay type: biochemical; settings: compound @ 10 μM
FAK Y397 = assay: FAK autophosphorylation in cells; assay type: cell-based; settings: c-Src527F/NIH3T3 cells
Abl(h) = Abl(h) (Homo sapiens, UniProt P00519); assay: isolated kinase activity, Abl; assay type: biochemical; settings: compound @ 10 μM
Yes(h) = Yes(h) (Homo sapiens, UniProt P07947); assay: isolated kinase activity, Yes; assay type: biochemical; settings: compound @ 10 μM
FAK Tyr 925 = assay: intracellular phosphorylation, FAK Tyr 925; assay type: cell-based; settings: whole cells
Fyn(h) = Fyn(h) (Homo sapiens, UniProt P06241); assay: isolated kinase activity, Fyn; assay type: biochemical; settings: compound @ 10 μM
EGFR(h) = EGFR(h) (Homo sapiens, UniProt P00533); assay: isolated kinase activity, EGFR; assay type: biochemical; settings: compound @ 10 μM
Shc Y239/240 = assay: intracellular phosphorylation, Shc Y239/240; assay type: cell-based; settings: whole cells
FGFR2(h) = FGFR2(h) (Homo sapiens, UniProt P21802); assay: isolated kinase activity, FGFR2; assay type: biochemical; settings: compound @ 10 μM
Paxillin Y-31 = assay: intracellular phosphorylation, Paxillin Y-31; assay type: cell-based; settings: c-Src527F/NIH-3T3 cells
[2] = tested on: osteoclast precursors derived from spleen cells; assay: osteoclast formation from spleen cells; assay type: cell-based; settings: 5 days, RANKL and M-CSF, vs untreated control
Lck(h) = Lck(h) (Homo sapiens, UniProt P06239); assay: isolated kinase activity, Lck; assay type: biochemical; settings: compound @ 10 μM
[3] = tested on: EGFR tyrosine kinase autophosphorylation; assay: EGFR tyrosine kinase autophosphorylation in cells; assay type: cell-based; settings: tumor cells, FIG. 9; EGF Y845
[4] = tested on: resorption pits on bone slices; assay: resorption pit formation on bone slices; assay type: cell-based; settings: vs untreated control
[5] = noise-induced hearing loss; assay type: in vivo, Chinchillas; settings: chinchilla ears treated on round window, 4 kHz band noise 105 dB SPL 4 h, days 1, 7, 21; relative to control ears
[6] = tested on: PDGF receptor tyrosine kinase Y572/574; assay: PDGF receptor autophosphorylation in cells; assay type: cell-based; settings: c-Src527F/NIH-3T3 cells
[7] = tested on: total phosphotyrosine levels; assay: total phosphotyrosine levels; assay type: cell-based; settings: HT29 and c-Src527F/NIH-3T3 cells

## COc1cc2c(Nc3c(Cl)ccc4c3OCO4)ncnc2cc1OCCCN1CCCCC1
MAPK2(h)
  percent activity of isolated kinase relative to control: 105%
Lyn(h)
  percent activity of isolated kinase relative to control: 0%
[1]; FIG. 20A
  number of osteoclasts on the bone slices: reduced
[1]; FIG. 21A
  number of TRAP-positive osteoclasts on the bone slices: reduced
c-Src 3T3 cells; 1.0 uM
  c-Src 3T3 Growth, % of Control Mean, n = 3: T (T = Cytotoxic Effect on Cells, negative growth)
c-Src 3T3 cells; 10 uM
  c-Src 3T3 Growth, % of Control Mean, n = 3: T (T = Cytotoxic Effect on Cells, negative growth)
PI3 kinase
  percent activity of isolated kinase relative to control: 99%
IGF-1R(h)
  percent activity of isolated kinase relative to control: 110%
PDGFRβ(h)
  percent activity of isolated kinase relative to control: 98%
osteoclasts
  number of TRAP-positive osteoclasts (survival): reduced
  survival of osteoclasts (staining): inhibited
ZAP-70(h)
  percent activity of isolated kinase relative to control: 97%
HT29 cell line
  HT-29 Growth, % of Control Mean, n = 3: T (T = Cytotoxic Effect on Cells, negative growth)
Pyk2(h)
  percent activity of isolated kinase relative to control: 43%
FAK Y397
  FAK Y397 autophosphorylation: some inhibition
Abl(h)
  percent activity of isolated kinase relative to control: 1%
Yes(h)
  percent activity of isolated kinase relative to control: 1%
FAK Tyr 925
  phosphorylation of FAK Tyr 925 (Src transphosphorylation): inhibited
Fyn(h)
  percent activity of isolated kinase relative to control: 2%
EGFR(h)
  percent activity of isolated kinase relative to control: 3%
Shc Y239/240
  phosphorylation of Shc Y239/240 (Src transphosphorylation): inhibited
FGFR2(h)
  percent activity of isolated kinase relative to control: 94%
Paxillin Y-31
  phosphorylation of Paxillin Y-31 (Src transphosphorylation): inhibited
[2]
  formation of osteoclasts (staining): inhibited
  number of TRAP-positive osteoclasts (formation): reduced
Lck(h)
  percent activity of isolated kinase relative to control: 1%
[3]
  EGFR tyrosine kinase autophosphorylation: potently inhibits
[4]; FIG. 20B
  number of resorption pits on the bone slices: reduced
[4]; FIG. 21B
  number of resorption pits on the bone slices (Toluidine Blue): reduced
[5]
  average dB threshold shifts: lower
[6]
  PDGF receptor Y572/574 autophosphorylation: dose response reduction
[7]
  total phosphotyrosine levels: reduction in the total phosphotyrosine levels
